The values below are quoted from earlier work in publication PMC10792358 (Clinical Cancer Research, 2023).

This data set deals with NUT carcinoma and other solid tumors. The settings on record: molibresib monotherapy; cited from earlier work.

`CCNC(=O)C[C@@H]1N=C(c2ccc(Cl)cc2)c2cc(OC)ccc2-n2c(C)nnc21` [molibresib]: the “recommended phase II dose (RP2D)” value is 80 mg daily.
